# Apparent affinities of Ab-14 variants for a coronavirus HR2 peptide

Data: MIT Lincoln Laboratory AlphaSeq set, Engelhart et al. 2022, doi:10.1038/s41597-022-01779-4, as distributed in FLAb.

Target peptide (SARS-CoV-2 spike, HR2 region): PDVDLGDISGINAS

Parent scFv Ab-14: VH joined to VL by the linker GGGGSGGGGSGGGGS. Changes lie in the heavy chain CDRs alone.
VH: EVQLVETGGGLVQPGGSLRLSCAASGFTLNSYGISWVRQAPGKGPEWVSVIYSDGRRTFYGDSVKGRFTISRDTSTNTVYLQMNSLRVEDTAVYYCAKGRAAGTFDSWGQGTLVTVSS
VL: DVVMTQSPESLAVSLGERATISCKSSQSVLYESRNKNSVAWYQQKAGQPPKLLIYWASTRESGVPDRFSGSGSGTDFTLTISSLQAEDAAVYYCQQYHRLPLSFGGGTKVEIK

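Phage display of a naive human antibody library on the peptide gave the parent. The library (AAYL49) carries one to three amino acid substitutions per variant, with no insertions or deletions. The assay is AlphaSeq: two haploid yeast populations carry antibody and antigen on their surface. Pairs that bind mate more often; barcode pairs of the diploids are counted by sequencing. Read counts were normalised to the haploid input and turned into Kd by a linear fit to BCL2-family pairs of known affinity, for each replicate. There are three technical replicates.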

Changes read parent residue, position, new residue, counted from the first residue of the VH shown.
Every variant below is changed at S107 of the VH (sequential numbering).
Values are apparent Kd, the geometric mean of the replicates that gave a signal; lower means stronger binding.
A pair that was not seen in any replicate is written "no signal"; this usually means weak binding, but a binder can also be missed.

T58P F59P S107C: no signal (0 of 3 replicates).
F27T T104G S107N: 57 µM (2 of 3 replicates).
S53K S107H: 280 µM (1 of 3 replicates).
V64K D106A S107D: 8.5 µM (2 of 3 replicates).
S35V A101S S107G: no signal (0 of 3 replicates).
Y32L Y60I S107K: no signal (0 of 3 replicates).
S35E G99I S107R: no signal (0 of 3 replicates).
Y32S K65A S107M: 2.9 µM (1 of 3 replicates).
G55I R57Y S107Q: 36 µM (1 of 3 replicates).
N30F Y52D S107N: no signal (0 of 3 replicates).
S53D G55Y S107E: no signal (0 of 3 replicates).
D62N S107D: 58 nM (3 of 3 replicates).
F59N A102L S107E: 3.2 µM (1 of 3 replicates).
I51W K65W S107V: no signal (0 of 3 replicates).
G61M S63Q S107P: 3.0 nM (3 of 3 replicates).
Y60E R100F S107C: no signal (0 of 3 replicates).
F27W R57V S107I: no signal (0 of 3 replicates).
S31R Y60R S107L: 160 µM (1 of 3 replicates).
T58N T104G S107C: 54 nM (3 of 3 replicates).
T28A G61T S107E: 8.6 µM (1 of 3 replicates).
I34R Y60K S107V: no signal (0 of 3 replicates).
F27R L29M S107R: 2.3 µM (1 of 3 replicates).
R57H Y60C S107T: 360 nM (2 of 3 replicates).
D62R S107F: 700 nM (3 of 3 replicates).
S53H R57E S107H: no signal (0 of 3 replicates).
V50C G61P S107D: 17 µM (1 of 3 replicates).
S63M K65T S107W: no signal (0 of 3 replicates).
A101W A102E S107C: 3.6 µM (1 of 3 replicates).
F27Q K65E S107L: 420 µM (1 of 3 replicates).
Y60E R100I S107F: 20 µM (1 of 3 replicates).
S35K S107R: no signal (0 of 3 replicates).
G99K S107V: 3.1 µM (2 of 3 replicates).
S35H D54C S107F: no signal (0 of 3 replicates).
G26L G33W S107H: no signal (0 of 3 replicates).
S53M Y60Q S107R: no signal (0 of 3 replicates).

Nonspecific signal, from three strains lacking the peptide, appeared in 15% of pairings of library AAYL49, centred on 11 µM (5% of these signals below 680 nM); values are not corrected for it.